Data taken from ChEMBL document CHEMBL4118168, “Synthesis and structure-activity relationship studies of MI-2 analogues as MALT1 inhibitors” (Bioorg Med Chem, 2018).
The source made the active and inactive calls. The rule behind the calls is not given here.

Molecular target: T1, Mucosa-associated lymphoid tissue lymphoma translocation protein 1 (Homo sapiens) (UniProt Q9UDY8)
T1 sequence (whole entry): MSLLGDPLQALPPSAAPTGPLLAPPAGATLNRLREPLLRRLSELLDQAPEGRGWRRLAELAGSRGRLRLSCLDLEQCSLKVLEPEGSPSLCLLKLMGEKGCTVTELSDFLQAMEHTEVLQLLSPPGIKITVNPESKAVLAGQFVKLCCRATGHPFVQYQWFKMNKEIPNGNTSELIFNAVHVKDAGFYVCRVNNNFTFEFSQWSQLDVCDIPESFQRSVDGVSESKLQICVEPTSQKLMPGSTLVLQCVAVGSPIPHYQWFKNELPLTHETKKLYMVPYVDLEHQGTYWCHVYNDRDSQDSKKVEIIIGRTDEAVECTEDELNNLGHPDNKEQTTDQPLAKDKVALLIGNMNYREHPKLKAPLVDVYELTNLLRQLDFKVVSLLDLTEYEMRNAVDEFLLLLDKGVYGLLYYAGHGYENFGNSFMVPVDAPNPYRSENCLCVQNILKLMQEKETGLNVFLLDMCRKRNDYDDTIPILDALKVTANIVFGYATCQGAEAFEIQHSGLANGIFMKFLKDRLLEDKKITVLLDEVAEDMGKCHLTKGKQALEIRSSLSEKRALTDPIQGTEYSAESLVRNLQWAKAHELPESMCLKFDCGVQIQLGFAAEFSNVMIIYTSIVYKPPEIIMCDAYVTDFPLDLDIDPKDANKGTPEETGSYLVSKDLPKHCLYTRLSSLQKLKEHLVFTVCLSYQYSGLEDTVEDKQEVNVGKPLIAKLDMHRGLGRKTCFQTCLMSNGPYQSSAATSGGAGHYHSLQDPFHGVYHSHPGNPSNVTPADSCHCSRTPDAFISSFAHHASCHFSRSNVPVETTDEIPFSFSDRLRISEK
Assay: Inhibition of MALT1 in PMA/ionomycin-stimulated human Jurkat T cells assessed as reduction in RelB cleavage at 2 uM pretreated for 4 hrs followed by 1 hr incubation with protease inhibitor MG132 and subsequent PMA/ionomycin-stimulation measured after 1 hr by Western blot analysis
Assay type: cell-based
In short: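 Jurkat T cells in RPMI 1640 with 10% FBS, seeded at 9×10^5 cells/well, treated with compound or DMSO for 4 h, then 1 h with MG132 (10 μM), then stimulated with PMA. RelB cleavage as the read-out of MALT1 activity, detected by Western blot.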

For O=C(CCl)Nc1ccc(-n2nc(OCCO)nc2-c2ccc(Cl)c(Cl)c2)cc1, the inhibition was “Active”.
